Source: PubChem BioAssay (National Center for Advancing Translational Sciences (NCATS))
Nrf2 activator: Nrf2 pathway activation | AREc32 ARE-luciferase reporter (MCF7-derived line), luminescence, 24 h | Potency, µM (series often up to 46.1 µM), for the others: at the highest dose activation, most hits filed as activators | 410,000 tested, 0.31% active | AID 624171; also: potency is read from the fitted curve at half-maximal effect; % of control where 0% means no effect; nearly all actives have a fitted effect of over 65% in size
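Each well held 1000 AREc32 cells, which were incubated with compound for 24 hr at 37 deg C after overnight attachment, and ARE reporter activity was quantified by firefly luciferase luminescence.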
B2AR arrestin: agonists driving beta-arrestin recruitment to human beta2-adrenergic receptor. beta-arrestin recruitment to beta2AR, cell-based reporter. Potency, µM (doses to about 46.1 µM), for inactives: at the top dose activation, hits mostly activators. 330,000 tested, 0.02% active. AID 492947;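 also: potency is read from the fitted curve at half-maximal effect; 0% = DMSO controls and full agonism = EC100 isoproterenol or metaproterenol; nearly all actives have a fitted effect of over 65% in size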
miR-21 reporter: raises the signal of a miR-21 reporter; HeLa miR-21 FLuc reporter, luciferase, 48 h; Potency, µM (highest dose often 38.3 µM), for inactives: at the highest dose reporter change, positive = more light; 340,000 tested, under 10 active; active = well fitted rising curve with a large enough effect; inconclusive = small, poorly fitted or top-dose-only effect; inactive = no such curve, though single readings can be large or run the other way;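 also: % of control where 0% means no effect; miR-21 action dims this reporter so a rising signal means less miR-21 action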
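Luminescence from a firefly luciferase reporter carrying a miR-21 binding site downstream, stably expressed under a CMV promoter in HeLa cells that make miR-21 endogenously, reports miRNA modulation after 48 h compound exposure up to approximately 40uM final.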
Nrf2 block: blocks Nrf2 signaling | AID 504444 | 360,000 tested, 2.1% active | Potency, µM (doses to about 46 µM), inactives show at the top dose activity change, negative = inhibition, most hits filed as inhibitors | A549 ARE-Fluc reporter, luciferase luminescence, 18-24 h; also: potency is read from the fitted curve at half-maximal effect; % is scaled to controls: 0 for no effect and ±100 for the full control effect; nearly all actives have a fitted effect of over 60% in size
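Reporter: ARE-Fluc in A549. Exposure: 18-24 h, 37 °C, 5% CO2, 5% FBS OPTI-MEM. Readouts: fluorescent cytotoxicity (CellTiter-Fluor), then luminescent Nrf2 signal after BugLite.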
A549 viability: counter-screen for Nrf2 inhibitors: cytotoxicity in A549 cells | A549 ARE-Fluc cells, CellTiter-Fluor viability, 18-24 h | Potency, µM (top dose mostly 46 µM), inactives show top-dose activity change, negative = cytotoxicity, usual class: inhibitors | 390,000 tested, 0.16% active | AID 504648; also: potency is read from the fitted curve at half-maximal effect; % is scaled to controls: 0 for no effect and ±100 for the full control effect
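A549 ARE-Fluc cells in 5% FBS OPTI-MEM, 5000 cells/well, rested 2 h then exposed to compounds in concentration-response for 18-24 h at 37 °C. Viability by CellTiter-Fluor fluorescence (Ex 405/Em 525) after 30 min; luciferase luminescence (BugLite, 15 min, RT) read afterwards.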
Active calls of the source: *; u = inconclusive; x = not tested or not shown; [ ] = dose if it differs, or a comment. Shown are actives, neighbours in structure and some others; about 2.2% of the full set was active somewhere. Unless noted, calls follow the shape of the dose curve; as a rule, active = well fitted curve in the direction sought with a large enough effect; inconclusive = small, poorly fitted or top-dose-only effect, or another doubt; inactive = no such curve, though single readings can be large; an effect the other way counts as inactive or inconclusive.

1) CCOC(=O)c1ccc(S(=O)(=O)N2CCN(C(=O)c3nn(C)c(=O)c4ccccc34)CC2)cc1
2) Cn1nc(C(=O)N2CCN(S(=O)(=O)c3ccc(Cl)cc3)CC2)c2ccccc2c1=O
3) N#C/C(=N\Nc1cccc(Cl)c1)C(=O)c1ccccc1
4) COc1ccc(C(=O)/C(C#N)=N/Nc2cccc([N+](=O)[O-])c2)cc1
5) Cc1ccc(N/N=C(\C#N)C(=O)c2ccsc2)cc1
entry no. | 1 | 2 | 3 | 4 | 5
Nrf2 activator | 0% | 0% | 4% | u | 9%
B2AR arrestin | -1% | -2% | 0% | 0% | 1%
miR-21 reporter | 3% | x | 16% | 20% | -26%
Nrf2 block | 10% | 23µM* | u | 23µM* | u
A549 viability | 6% | -8% | 18µM* | u | -16%

6) N#C/C(=N\Nc1ccccc1Cl)C(=O)c1ccccc1
7) N#C/C(=N\Nc1ccc(Cl)cc1)C(=O)c1ccsc1
8) O=C(Nc1cccc(S(=O)(=O)N2CCCCCC2)c1)c1cc(=O)c2ccccc2o1
9) NS(=O)(=O)c1cccc(NC(=O)c2cc(=O)c3ccccc3o2)c1
10) O=C(NCc1ccccc1)c1cc(=O)c2ccccc2o1
entry no. | 6 | 7 | 8 | 9 | 10
Nrf2 activator | 4% | 6% | 9% | 13µM* | 0%
B2AR arrestin | -1% | 0% | 0% | -1% | 0%
miR-21 reporter | -10% | 22% | 5% | -16% | 0%
Nrf2 block | u | 16µM* | 18µM* | -2% | u
A549 viability | u | u | -14% | -12% | 0%

11) COc1ccc(CNC(=O)c2cc(=O)c3ccccc3o2)cc1
12) CCOC(=O)/C(=C/C=C1\Sc2cc(C)c(C)cc2N1CC)C(C)=O
13) CCN1/C(=C/c2ccc3cc(C)ccc3[n+]2CC)Sc2cc(C)c(C)cc21
14) Cc1ccc(C)c(NC(=O)CCCN2C(=O)C(c3ccccc3)Oc3cccnc32)c1 (centres undefined)
15) O=C(CC(=O)c1ccccc1)Nc1cc(C(F)(F)F)ccc1Cl
entry no. | 11 | 12 | 13 | 14 | 15
Nrf2 activator | -1% | 1% | -1% | 0% | 17%
B2AR arrestin | 0% | -1% | 0% | x | 0%
miR-21 reporter | 1% | 1% | u | 2% | -2%
Nrf2 block | 13µM* | u | 1.3µM* | -16% | -12%
A549 viability | 3% | u | u | 1% | -5%

16) O=C(NC(=S)Nc1cc(C(F)(F)F)ccc1Cl)c1ccccc1
17) O=C(CNC(=O)c1cccc(Cl)c1)OC(C(=O)Nc1cc(C(F)(F)F)ccc1Cl)c1ccccc1 (centres undefined)
18) O=C(Nc1cc(C(F)(F)F)ccc1Cl)[C@H](O)CCc1ccccc1
19) O=C(CNC(=O)c1ccccc1)OC(C(=O)Nc1cc(C(F)(F)F)ccc1Cl)c1ccccc1 (centres undefined)
20) Cc1cc(C)cc(NC(=O)C(=O)NCC(c2ccc3c(c2)OCO3)N2CCN(C)CC2)c1 (centres undefined)
entry no. | 16 | 17 | 18 | 19 | 20
Nrf2 activator | 3.2µM* | x | x | -1% | 1%
B2AR arrestin | 0% | x | x | 0% | x
miR-21 reporter | -13% | x | x | -17% | -20%
Nrf2 block | u | 23µM* | 26µM* | 13% | x
A549 viability | 4% | -25% | u | 0% | -14%

21) CCOc1cc(C(=O)N2CC(=O)Nc3ccc(F)cc3C2c2ccccc2)cc(OCC)c1OCC (centres undefined)
22) Nc1nc(CSC(=S)N2CCN(c3ccccc3)CC2)nc(Nc2ccccc2)n1
23) O=C(O)COc1ccc(/C=N/n2cnc3scc(-c4cccs4)c3c2=O)cc1
24) O=c1c2c(-c3cccs3)csc2ncn1/N=C/c1ccc(OC(F)F)cc1
25) CCc1ccccc1NC(=O)c1ccc2[nH]c(C)c(C)c2c1
entry no. | 21 | 22 | 23 | 24 | 25
Nrf2 activator | 0% | 3% | 4% | 3% | 5%
B2AR arrestin | x | 0% | -1% | 0% | x
miR-21 reporter | 10% | 3% | 0% | -7% | -82%
Nrf2 block | -16%[9.27 µM] | 16µM* | 8% | 9.2µM* | u
A549 viability | 8% | -7% | 5% | u | 15%

26) O=C(NCCCN1CCN(c2ccccc2F)CC1)c1ccc2nc(CCc3ccccc3)oc2c1
27) O=[N+]([O-])c1ccc2cn(-c3ccccc3)nc2c1
28) COc1ccccc1-n1cc2ccc([N+](=O)[O-])cc2n1
29) COc1ccccc1CNC(=O)CSc1ncc(S(=O)(=O)c2ccc(C)c(Cl)c2)c(=O)[nH]1
30) CCOC(=O)c1ccc(NC(=O)NCCOCCn2c(=O)oc3ccccc32)cc1
entry no. | 26 | 27 | 28 | 29 | 30
Nrf2 activator | 0% | u | 11µM* | -1% | 6%
B2AR arrestin | x | -1% | x | x | x
miR-21 reporter | 12% | -67% | x | 1% | 19%
Nrf2 block | x | u | u | x | u
A549 viability | -23% | 12% | 15% | 5% | 0%

Molecules above containing an NH in an aromatic ring, in the order listed:
25) CCc1ccccc1NC(=O)c1ccc2[nH]c(C)c(C)c2c1
29) COc1ccccc1CNC(=O)CSc1ncc(S(=O)(=O)c2ccc(C)c(Cl)c2)c(=O)[nH]1
entry no. | 25 | 29
Nrf2 activator | 5% | -1%
B2AR arrestin | x | x
miR-21 reporter | -82% | 1%
Nrf2 block | u | x
A549 viability | 15% | 5%
